{"source": "paper PMC11386433", "about": "(Journal of Medicinal Chemistry, 2024)", "biological_target": "δOR (Homo sapiens, UniProt P41143)", "experiment": "Radioligand binding, [3H]diprenorphine, HEK293T membrane preparations", "settings": "read-out: Kd of the radioligand; specific binding affinity of the radioligand, HEK293T membranes", "note": "Only a part of the results on these compounds is given; other tests are left out."}
{"substance": "[^3H]diprenorphine", "values": [{"measurement": "Kd", "result": 0.27, "unit": "nM"}]}
